Earlier results on 1 substance are cited in patent US12044651B2, “Sensor device and methods” (SCENTIAN BIO LIMITED, priority 2016, dated 2024).

Only a part of the results on these compounds is given; other tests are left out.

In the data set the test system is OBP proteins. The settings on record: cited from earlier work.

Consider TNT, for which the “concentration that could be detected” value is 52 pM.
